This note sets out measurements from patent publication US8492379B2, “Translocator protein ligands” (The University of Sydney, priority 2007, dated 2013).

Protein sequences, listed by entry. Tags and fused reporters are not part of them.
UniProt P16257, whole entry, looked up: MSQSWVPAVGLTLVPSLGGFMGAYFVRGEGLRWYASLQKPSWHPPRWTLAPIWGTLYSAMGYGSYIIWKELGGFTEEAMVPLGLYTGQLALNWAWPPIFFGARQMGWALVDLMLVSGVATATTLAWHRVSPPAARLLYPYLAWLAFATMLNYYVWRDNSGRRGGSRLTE

The assay has as its target TSPO (Rattus norvegicus (Rat), UniProt P16257). As to the kind of experiment: In vitro binding affinity, 3H-PK11195 displacement in kidney mitochondria. The note with it: 0.6 nM 3H-PK11195, mitochondria from kidneys of male Wistar rats, 90 min at 4° C. As to the method:
3H-PK11195 (specific activity 322 GBq/mmol) and 3H-Ro 15-1788 (specific activity 311 GBq/mmol) were purchased from Dupont-New England Nuclear. For binding studies, mitochondria were prepared as described in Trapani G., et al. J Med Chem. 1997; 40:3109-3118, with minor modifications as described here, from the kidneys of male Wistar rats killed by cervical dislocation. The kidneys were homogenized in 20 volumes of ice-cold 50 mM Tris-HCl (pH 7.4), 0.32 M sucrose, and 1 mM ethylenediaminetetraacetic acid (buffer A) containing protease inhibitors (benzamidine at […], bacitracin at […], and soybean trypsin inhibitor at […]) with a Teflon (DuPont) pestle in a glass homogenizer and centrifuged at 600 g for 10 min at 4° C. The resulting supernatant was centrifuged at 10,000 g for 10 min at 4° C. The pellet was suspended in 20 volumes of ice cold buffer A and centrifuged at 10,000 g for 10 min at 4° C. The crude mitochondrial pellet was frozen at −20° C. until the time of the assay or incubated with 0.6 nM 3H-PK11195 in 50 mM Tris-HCl (pH 7.4) (buffer B) with a range of concentrations of the tested compounds (0.1 nM-10 mM) in a total volume of 0.5 mL for 90 min at 4° C. The incubation was terminated by dilution to 5 mL with icecold buffer B; this step was followed immediately by rapid filtration through glass fiber Whatman GF/C filters. The filters were washed (2.5 mL) with buffer B, and the amount of radioactivity retained on the filters was determined with a Packard 1600 TR liquid scintillation counter at 66% efficiency. Nonspecific binding was estimated for each sample in the presence of unlabeled 1 mM PK11195. The 50% inhibitory concentrations were determined, and the dissociation constant (Ki) values were derived according to a previously derived equation (Cheng Y., et al. Biochem Pharmacol. 1973; 22:3099-3108). The protein concentration was estimated by the method of Lowry et al. (J Biol Chem. 1951; 193:265-275) with bovine serum albumin (Sigma-Aldrich) as the standard.

For the compound `CCN(CC)C(=O)Cc1c(-c2ccc(OC)cc2)nc2c(C)cc(C)nn12`, the inhibition constant (Ki) was 2.61 nM.

In the case of `CCN(CC)C(=O)Cc1c(-c2ccc(O)cc2)nc2c(C)cc(C)nn12`, the Ki turned out to be 11 nM.

`CCN(CC)C(=O)Cc1c(-c2ccc(OCCF)cc2)nc2c(C)cc(C)nn12`: affinity was put at a Ki of 1.55 nM.
